{"source": "patent US7060428B2", "about": "“Methods and compositions useful for the prediction of blood-brain barrier permeation” (Wyeth, priority 2001, dated 2006)", "settings": "pH 7.4 buffer, 18 h, literature compounds", "data": [{"substance": "Enoxin", "values": [{"measurement": "Pe (linear velocity of permeation)", "setting": "ambient temperature, averaged", "value": "0.90 10^−6 cm/s"}, {"measurement": "CNS Eval (BBB permeability designation from Pe)", "value": "− (CNS− for Pe values ≦2×10^−6 cm/sec)"}]}]}
